In this assay the target is Amine oxidase [flavin-containing] A (Rattus norvegicus, UniProt P21396). As to the kind of experiment: Inhibition of MAOA in Sprague-Dawley rat brain mitochondria using kynuramine substrate by fluorimetry.

Protein sequences, listed by entry. Tags and fused reporters are not part of them.
UniProt P21396, whole entry: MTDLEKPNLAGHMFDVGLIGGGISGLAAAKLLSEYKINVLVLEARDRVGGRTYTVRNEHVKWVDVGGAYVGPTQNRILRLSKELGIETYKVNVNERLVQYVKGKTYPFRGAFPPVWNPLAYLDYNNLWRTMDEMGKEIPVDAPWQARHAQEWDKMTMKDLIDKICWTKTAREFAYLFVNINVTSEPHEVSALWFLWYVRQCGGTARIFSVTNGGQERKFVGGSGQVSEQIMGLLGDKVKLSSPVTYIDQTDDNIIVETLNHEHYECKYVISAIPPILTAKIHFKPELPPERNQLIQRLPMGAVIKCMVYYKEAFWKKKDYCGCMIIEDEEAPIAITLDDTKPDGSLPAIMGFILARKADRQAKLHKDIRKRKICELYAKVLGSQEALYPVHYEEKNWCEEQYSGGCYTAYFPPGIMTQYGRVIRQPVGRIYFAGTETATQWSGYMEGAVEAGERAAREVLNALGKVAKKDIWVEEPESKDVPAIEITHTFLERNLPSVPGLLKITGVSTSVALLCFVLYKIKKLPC

Usually IC50 stands for the point on the concentration scale where inhibition reaches its midpoint. Lower therefore signals greater potency in that assay.

Turning to `CC(C)NNC(=O)c1ccncc1` [IPRONIAZID], the IC50 came out at 5 µM.

Source of the values: ChEMBL document CHEMBL1156928, “Design of novel nicotinamides as potent and selective monoamine oxidase a inhibitors” (Bioorg Med Chem, 2010).
